Target: T1, RNase A (bovine, UniProt P61823 27-150)
T1 construct: Coated in immunotubes for panning; also called bovine RNase A
T1 sequence (looked up): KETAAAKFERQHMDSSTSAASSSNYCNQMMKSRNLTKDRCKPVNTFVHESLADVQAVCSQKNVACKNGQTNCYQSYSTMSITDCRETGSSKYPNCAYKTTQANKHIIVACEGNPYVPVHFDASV
Assay: phage panning on RNase A coated immunotubes

B1: iMab130 displayed on phage as g3 fusion (designed binder)
chain: NVKLVEKGGNFVENDDDLKLTCRASGYAYTYIYMGWFRQAPNDDSTNVATIDSGGGGTLYGDSVKERFDIRRDKGSNTVTLSMDDLQPEDSAEYNCAAGGYELRDRTYGQRGQGTDVTVSS
- binding result: no binding

Reference: US20060292634A1 (CATCHMABS B V, published 2006)
